Drawing on patent US6716960B2, “Mch3, a novel apoptotic protease, nucleic acids encoding and methods of use” (Idun Pharmaceuticals, Inc., priority 1995, dated 2004), this text covers Ki for 1 compound.

The target of the assay is T1, CPP32 (Homo sapiens, UniProt P42574).
T1 construct: CPP32 is cleaved at Asp28 and Asp175 to generate two polypeptides of molecular masses of 17 kDa (p17) and 12 kDa (p12); GST (N, cleaved yes); made in house; host or cells: E. coli; bacterial lysates
T1 sequence (P42574 29-175 limits assumed): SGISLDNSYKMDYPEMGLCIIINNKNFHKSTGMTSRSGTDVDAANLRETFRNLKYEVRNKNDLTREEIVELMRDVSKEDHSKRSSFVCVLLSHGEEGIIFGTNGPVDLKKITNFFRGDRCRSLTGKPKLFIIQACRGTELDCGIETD
T1 sequence (P42574 176-277 limits assumed): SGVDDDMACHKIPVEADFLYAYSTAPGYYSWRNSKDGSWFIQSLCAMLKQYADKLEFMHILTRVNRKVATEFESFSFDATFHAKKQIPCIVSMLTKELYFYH
The experiment in a line: Continuous fluorometric assay of recombinant CPP32 with DEVD-AMC substrate. Format: biochemical.

On to `CC(=O)N[C@@H](CC(=O)O)C(=O)N[C@@H](CCC(=O)O)C(=O)N[C@H](C(=O)N[C@H](C=O)CC(=O)O)C(C)C` [DEVDaldehyde, DEVD-CHO], for which the Ki turned out to be 0.59 nM.
